# Measured affinities in a library of Ab-91 heavy chain variants

Values reported by Engelhart et al. 2022, doi:10.1038/s41597-022-01779-4 (FLAb copy).

Binding partner: SARS-CoV-2 spike HR2 peptide, sequence PDVDLGDISGINAS.

The variants keep the light chain, the linker and the frameworks of Ab-91 (scFv order VL, a 15-residue (Gly4Ser)3 linker, VH).
VL: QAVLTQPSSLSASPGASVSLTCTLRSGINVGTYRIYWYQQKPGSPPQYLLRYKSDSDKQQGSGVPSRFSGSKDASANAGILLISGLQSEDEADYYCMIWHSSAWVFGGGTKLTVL
VH: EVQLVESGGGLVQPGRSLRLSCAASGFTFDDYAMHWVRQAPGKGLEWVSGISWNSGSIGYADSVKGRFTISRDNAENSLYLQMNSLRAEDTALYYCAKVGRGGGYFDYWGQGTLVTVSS

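Phage display of a naive human antibody library on the peptide gave the parent. AAYL51 was designed without a model: most single CDR substitutions and a random sample of double and triple ones. The scFvs were displayed on barcoded MATa yeast, the peptide on MATalpha yeast. Binding brings cells together so that they mate, and sequencing counts the barcode pairs among the diploids. Read counts were normalised to the haploid input and turned into Kd by a linear fit to BCL2-family pairs of known affinity, for each replicate. The assay was run in three technical replicates.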

Each variant is given by its three heavy chain CDRs, as the data file delimits them; those of the parent are GFTFDDYAMH, GISWNSGSIGYADSVK, VGRGGGYFDY. The read-out is the apparent dissociation constant on a log10 scale (nM): the lower, the stronger. A mean of the replicates is given; it leaves out those without a signal. An entry "nd" has no value in the source: the pair was not observed among the diploids in any replicate. This suggests poor binding but is not conclusive. Entries are sorted by rising average, undetected variants last. As a blank, each scFv also met three strains without target: over library AAYL51, 21% of these pairings were detected, typically at 4.54 and seldom below 3.26. Also given: how often the same scFv was detected with the empty control strains.

| mean, log10 nM | seen in | signal with controls | CDR-H1 | CDR-H2 | CDR-H3 |
|---|---|---|---|---|---|
| 1.01 | 3 of 3 | 5 of 9 | GFTFDDYAMH | GISWNSGSIGYADSVK | RGRGGGGFDY |
| 1.04 | 3 of 3 | 0 of 9 | AFTFDDYAMD | GISWNSGEIGYADSVK | VGRGGGYFDY |
| 1.35 | 3 of 3 | 2 of 9 | HFTFQDYAMH | GISWNSGSIGYADSVK | VGRGGGYFDY |
| 2.25 | 3 of 3 | 6 of 9 | GFTFDDTAMH | GISWRSGSIGYADSVK | VGRGGGYFDR |
| 2.48 | 1 of 3 | 0 of 9 | MFTTDDYAMH | GISWNSGSIGYAWSVK | VGRGGGYFDY |
| 2.71 | 1 of 3 | 0 of 9 | GFRFDDYAMH | GISWNSGSCGYADSVK | VGRGGGKFDY |
| 2.81 | 3 of 3 | 1 of 9 | GFTFDDYAMH | GISWNAGSIGYAWSVK | VGRGGGYFDY |
| 2.84 | 1 of 3 | 2 of 9 | GFTFDDYAMH | GISWNSGSIGYNQSVK | VGRGGGYSDY |
| 3.55 | 1 of 3 | 3 of 9 | GFTFDDYAMH | GISRNSGYQGYADSVK | VGRGGGYFDY |
| 3.56 | 1 of 3 | 2 of 9 | GFTFDDCAMH | GISWNSGSDGMADSVK | VGRGGGYFDY |
| 3.68 | 3 of 3 | 3 of 9 | GFTFHDVAMH | GISWNSGSIGYADSVK | VGRGGGVFDY |
| 3.82 | 3 of 3 | 5 of 9 | GFTFDDYAMH | GISWNDGSIGYADSVK | VGPGGGYFDT |
| 3.83 | 1 of 3 | 2 of 9 | GFTFDDYAMH | GISWNSGVIGYDDSVK | VGRNGGYFDY |
| 4.00 | 3 of 3 | 3 of 9 | GMTFDDYAMH | GISWNSISIGYADPVK | VGRGGGYFDY |
| 4.13 | 2 of 3 | 4 of 9 | GFTFDDYAMH | GISWNSGSIGYADSPK | VGRGGGQFDY |
| 4.18 | 1 of 3 | 4 of 9 | GFTFDDYAMH | GISWNSGSIGYAGSCK | VGRGGWYFDY |
| 4.46 | 2 of 3 | 3 of 9 | GFTFDDYAMH | GISWNSGCIFYADSVK | VGRGGGFFDY |
| 4.51 | 1 of 3 | 2 of 9 | GFTTDDYAMH | GISWFSGSIGYADSLK | VGRGGGYFDY |
| 4.55 | 3 of 3 | 2 of 9 | IFTFDDYAMH | GISWNSGSIGYADSVK | VGRGGTYFDY |
| 4.64 | 1 of 3 | 2 of 9 | WPTFDDYAMH | GISWNSGSIGYADYVK | VGRGGGYFDY |
| 4.73 | 2 of 3 | 1 of 9 | GFTFDDYVMH | GIIWNSGSIGYADSVK | VGRGGGYFDI |
| 4.75 | 3 of 3 | 4 of 9 | TFQFDDYAMH | GISWNSGIIGYADSVK | VGRGGGYFDY |
| 4.75 | 1 of 3 | 1 of 9 | GFTFDDYAMH | AISWNSGSIGYADSVK | VGRGGGYFIY |
| 4.76 | 1 of 3 | 5 of 9 | GFTFDDYQMH | GISWNSGSIGYMDSVF | VGRGGGYFDY |
| 4.85 | 1 of 3 | 2 of 9 | GFTFDDYAMH | GKNWNSGSIGYADSVK | VGWGGGYFDY |
| 4.91 | 1 of 3 | 1 of 9 | GFTFYDYAMH | GISWNSGSIGYCDSVK | VFRGGGYFDY |
| 4.92 | 3 of 3 | 5 of 9 | GFTQDDYAMH | GIVWNRGSIGYADSVK | VGRGGGYFDY |
| 4.92 | 2 of 3 | 6 of 9 | GFTFDDYAMH | GISWNSGSIPYADSVK | VGRMGGTFDY |
| 4.93 | 3 of 3 | 6 of 9 | GFTFDDYAMI | GVSWNSGSIGYADSVQ | VGRGGGYFDY |
| 4.98 | 3 of 3 | 7 of 9 | GFTFFDYAMH | GISWNAGSIGYADSVK | VGRGGGYRDY |
| 5.15 | 2 of 3 | 7 of 9 | GFTFDDYAMH | KISWNSGSIGWADLVK | VGRGGGYFDY |
| 5.54 | 3 of 3 | 6 of 9 | GFTFDDYAMH | GISWNSGSIGNADSVK | VQRGGGYFDP |
| 5.57 | 1 of 3 | 3 of 9 | GFTFHDYMMH | GISWNSGSIGYADSVK | VGRGGGEFDY |
| 5.64 | 2 of 3 | 3 of 9 | GFTFDFYAMY | GISWNSGSIGYADSVK | VGRGGGYFDY |
| 5.69 | 3 of 3 | 5 of 9 | GFTFDDYDCH | GISWASGSIGYADSVK | VGRGGGYFDY |
| 5.90 | 2 of 3 | 6 of 9 | LFTFDDYAMH | PISWNSGSIGYADSVK | VGPGGGYFDY |
| 6.46 | 1 of 3 | 2 of 9 | DFTFDDYAMH | QISWNSGSIGYADSVK | VGRNGGYFDY |
| nd | 0 of 3 | 0 of 9 | GFTFDDYAMH | GLSWNSGSIGYADSVK | VGRYGGYFDY |
| nd | 0 of 3 | 0 of 9 | GFTFDDYAMH | GISWNSGSIGCADSQK | VGRGGGYFDY |
| nd | 0 of 3 | 2 of 9 | GFAFDDYTMH | GISWNSGSIGYADSVK | VGRGGGYVDY |
| nd | 0 of 3 | 4 of 9 | GFTFDDIAMH | GISWPSGSIGYMDSVK | VGRGGGYFDY |
| nd | 0 of 3 | 0 of 9 | GFTFDDYAKH | GISWNSGVIGYADGVK | VGRGGGYFDY |
| nd | 0 of 3 | 1 of 9 | GFTFDDYACH | GISWNSCYIGYADSVK | VGRGGGYFDY |
| nd | 0 of 3 | 1 of 9 | GFTFDDYAFH | GISWNEGSIGIADSVK | VGRGGGYFDY |
| nd | 0 of 3 | 1 of 9 | GFTFDDYAMH | GISWNSGSIDYADSPK | VGRGTGYFDY |
| nd | 0 of 3 | 0 of 9 | GFTFDDYAMH | HISWNSGSIGYEDSYK | VGRGGGYFDY |
| nd | 0 of 3 | 1 of 9 | GFTFDDYAMH | GISWNSGSIGYAPSKK | VGRGGGYFDY |
| nd | 0 of 3 | 0 of 9 | GFTFDDYAMH | GISWYSGSIGYADSVE | VHRGGGYFDY |
| nd | 0 of 3 | 0 of 9 | GFTFDDYAMH | GISWNSGWIGTIDSVK | VGRGGGYFDY |
| nd | 0 of 3 | 0 of 9 | GFTFDDYAMH | DISWNWGSIGYEDSVK | VGRGGGYFDY |
| nd | 0 of 3 | 1 of 9 | GFTFDDYAMH | GISWNSGPIGYADSVK | VGRGGGYIDY |
| nd | 0 of 3 | 0 of 9 | GFTFEDYAMH | GISWNSGSIVYADSVK | VGRGGGWFDY |
| nd | 0 of 3 | 3 of 9 | GFTFDDYAMH | GISQNSGSHGYADSRK | VGRGGGYFDY |
| nd | 0 of 3 | 0 of 9 | GFTFDDYAMH | GISWNSGKIGYADSVK | VGTGGGYWDY |
| nd | 0 of 3 | 1 of 9 | GFTFDDYALH | AISWNSGSNGYADSVK | VGRGGGYFDY |
| nd | 0 of 3 | 0 of 9 | GFTFDDYAFH | VISWNSGSIGYADRVK | VGRGGGYFDY |
| nd | 0 of 3 | 0 of 9 | GFYFDDYAMH | GISWNSGSIGYAHSVK | VGRGGGYFDY |
| nd | 0 of 3 | 1 of 9 | GFTFDDYAMQ | GISWNSGSIGYADSVK | VGRGGGGFSY |
| nd | 0 of 3 | 0 of 9 | GFTFDDYAMH | GISWNSPSIGYADSVK | YGRDGGYFDY |
| nd | 0 of 3 | 2 of 9 | GFTFDDYAMH | GIMWNSGSIGYADSVK | VSRGGGYFDD |
| nd | 0 of 3 | 0 of 9 | GFTFDDYAMH | GISWKSGSIWYADSVN | VGRGGGYFDY |
| nd | 0 of 3 | 0 of 9 | GFTFDDHAMH | GISWNYGSIGYADSVK | VGRLGGYFDY |

Excerpt, the final 9 entries:

CDR-H1,CDR-H2,CDR-H3,"mean, log10 nM",seen in,signal with controls
GFTFDDYAMH,GISWNSGKIGYADSVK,VGTGGGYWDY,nd,0 of 3,0 of 9
GFTFDDYALH,AISWNSGSNGYADSVK,VGRGGGYFDY,nd,0 of 3,1 of 9
GFTFDDYAFH,VISWNSGSIGYADRVK,VGRGGGYFDY,nd,0 of 3,0 of 9
GFYFDDYAMH,GISWNSGSIGYAHSVK,VGRGGGYFDY,nd,0 of 3,0 of 9
GFTFDDYAMQ,GISWNSGSIGYADSVK,VGRGGGGFSY,nd,0 of 3,1 of 9
GFTFDDYAMH,GISWNSPSIGYADSVK,YGRDGGYFDY,nd,0 of 3,0 of 9
GFTFDDYAMH,GIMWNSGSIGYADSVK,VSRGGGYFDD,nd,0 of 3,2 of 9
GFTFDDYAMH,GISWKSGSIWYADSVN,VGRGGGYFDY,nd,0 of 3,0 of 9
GFTFDDHAMH,GISWNYGSIGYADSVK,VGRLGGYFDY,nd,0 of 3,0 of 9